# PubChem BioAssay (NCI)
# Only a part is listed here, and it is no random draw. The source holds several records for some structures; these can differ, active in one and inactive in another. Activity calls are given as the source filed them. Cut-off read from the data, not from the text of the source: active = growth inhibition above about 70%; inactive = the rest.
# Test: NCI Yeast Anticancer Drug Screen. Data for the wt1 strain (AID 149);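 note: 0% = growth of vehicle-treated wt1 cultures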
# Conditions: S. cerevisiae wt1 strain (SPY 50644) growth inhibition, hits give high values
# Protocol: Growth inhibition of yeast strains with defined genetic alterations is measured as a screen for potential anti-cancer activity. Selected strains with alterations in DNA damage repair or cell cycle control were exposed to compounds and growth inhibition was measured relative to vehicle treated controls. The strain used in this assay is wt1
Structure (SMILES),growth inhibition (at 1.2 µM),growth inhibition (at 3.7 µM),growth inhibition (at 11.0 µM),growth inhibition (at 33.0 µM),growth inhibition (at 100.0 µM)
COc1cccc(C[N+](C)(CCCl)CCCl)c1[N+](=O)[O-],inactive: -3%,inactive: 0%,inactive: -5%,inactive: 0%,inactive: 8%
CN(C)P(=O)(N(C)C)n1c(Nc2ccccc2)nnc1-c1ccccc1,inactive: 0%,inactive: 11%,inactive: 12%,active: 98%,active: 97%
N#Cc1cc([N+](=O)[O-])cc([N+](=O)[O-])c1N,inactive: 5%,inactive: 14%,inactive: 25%,inactive: 52%,active: 79%
CC(C)c1nc(Nc2ccccc2)n(P(=O)(N(C)C)N(C)C)n1,inactive: -19%,inactive: -11%,inactive: -26%,inactive: 35%,active: 95%
O=[N+]([O-])c1cc([N+](=O)[O-])c2nsnc2c1,inactive: 5%,inactive: 46%,active: 100%,active: 99%,active: 99%
NC(Cc1cnc[nH]1)C(=O)O (stereo not given),inactive: -3%,inactive: 24%,active: 93%,active: 98%,active: 99%
O=C1OC(C(Cl)(Cl)Cl)Sc2ccccc21 (stereo not given),inactive: -2%,inactive: -1%,inactive: 2%,inactive: 11%,inactive: 23%
FC1(F)SC2C(C1(F)F)C1(Cl)C(Cl)=C(Cl)C2(Cl)C1(Cl)Cl (stereo not given),inactive: 14%,active: 93%,active: 99%,active: 99%,active: 98%
